The numbers were not newly measured in patent US20120252037A1, “STIMULATORY AUTO-ANTIBODIES TO THE PDGF RECEPTOR AS PATHOLOGY MARKER AND THERAPEUTIC TARGET” (priority 2005, published 2012), which cites them from elsewhere.

By UniProt entry, the sequences of proteins in these tests, tags left out. Residues count along the entry.
UniProt P00533, 25-1210: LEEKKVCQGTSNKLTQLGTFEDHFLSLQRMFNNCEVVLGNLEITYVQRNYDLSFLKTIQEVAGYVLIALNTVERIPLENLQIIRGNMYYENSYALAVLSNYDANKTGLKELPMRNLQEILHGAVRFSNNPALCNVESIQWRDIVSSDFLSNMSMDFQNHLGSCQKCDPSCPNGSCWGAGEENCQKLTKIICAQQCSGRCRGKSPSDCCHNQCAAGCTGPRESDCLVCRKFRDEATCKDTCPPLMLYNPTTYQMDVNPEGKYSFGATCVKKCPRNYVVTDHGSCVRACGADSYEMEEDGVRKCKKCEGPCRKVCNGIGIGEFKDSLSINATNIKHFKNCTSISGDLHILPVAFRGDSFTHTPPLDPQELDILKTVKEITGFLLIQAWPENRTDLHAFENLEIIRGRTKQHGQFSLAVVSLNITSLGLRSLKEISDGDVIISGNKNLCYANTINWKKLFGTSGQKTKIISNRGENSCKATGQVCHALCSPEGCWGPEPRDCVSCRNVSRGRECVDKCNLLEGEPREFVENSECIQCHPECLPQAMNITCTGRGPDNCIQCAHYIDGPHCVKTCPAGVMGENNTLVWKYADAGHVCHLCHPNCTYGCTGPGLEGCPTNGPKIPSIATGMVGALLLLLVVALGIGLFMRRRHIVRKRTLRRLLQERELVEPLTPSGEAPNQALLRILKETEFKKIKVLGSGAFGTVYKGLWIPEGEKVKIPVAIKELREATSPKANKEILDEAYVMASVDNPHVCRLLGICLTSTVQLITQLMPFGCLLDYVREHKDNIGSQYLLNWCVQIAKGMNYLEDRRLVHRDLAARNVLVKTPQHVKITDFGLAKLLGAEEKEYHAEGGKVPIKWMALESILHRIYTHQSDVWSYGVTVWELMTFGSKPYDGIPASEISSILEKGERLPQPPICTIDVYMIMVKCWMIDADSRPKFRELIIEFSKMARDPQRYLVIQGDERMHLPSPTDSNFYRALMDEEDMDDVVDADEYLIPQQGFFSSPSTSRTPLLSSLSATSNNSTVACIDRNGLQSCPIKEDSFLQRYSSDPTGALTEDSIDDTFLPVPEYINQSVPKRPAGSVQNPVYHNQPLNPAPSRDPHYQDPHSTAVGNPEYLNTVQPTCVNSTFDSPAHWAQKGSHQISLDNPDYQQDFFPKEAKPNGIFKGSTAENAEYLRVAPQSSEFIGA

The target of this data set is EGF receptor (Homo sapiens, UniProt P00533). As to conditions: cited from earlier work.

For `COc1cc2ncnc(Nc3cccc(Cl)c3)c2cc1OC` [AG1478], the concentration for half-maximal inhibition (IC50) (usually the concentration that inhibits the measured activity by half) is 3 nM.
